{"source": "patent US12472180B2", "about": "“Combinations for treatment of NAFLD/NASH and related diseases” (Pfizer Inc., priority 2020, dated 2025)", "system": "adults with non-alcoholic fatty liver disease (NAFLD)", "conditions": "for total number (%) of subjects exceeding triglyceride threshold >400 mg/dl / total number (%) of subjects exceeding triglyceride threshold >600 mg/dl / total number (%) of subjects exceeding triglyceride threshold >800 mg/dl: ACCi 15 mg BID, DGAT2i 300 mg BID, NAFLD patients; for Serum triglycerides % Change from Placebo, LS Mean: Study Day 42, Cmpd A 15 mg, Cmpd D 300 mg Q12H"}
{"molecule": "CCOc1cccnc1Oc1cncc(-c2ncc(C(=O)N[C@H]3CCOC3)cn2)c1", "note": "[Compound D, (S)-2-(5-((3-ethoxypyridin-2-yl)oxy)pyridin-3-yl)-N-(tetrahydrofuran-3-yl)pyrimidine-5-carboxamide]", "values": [{"measurement": "total number (%) of subjects exceeding triglyceride threshold >400 mg/dl", "value": "2 (7.4)"}, {"measurement": "total number (%) of subjects exceeding triglyceride threshold >600 mg/dl", "value": "1 (3.7)"}, {"measurement": "total number (%) of subjects exceeding triglyceride threshold >800 mg/dl", "value": 0}, {"measurement": "Serum triglycerides % Change from Placebo, LS Mean", "value": "modest decrease in triglycerides"}]}
{"molecule": "COc1cc(C(=O)N2CCC3(CC2)CC(=O)c2c(cnn2C(C)C)C3)cc(-c2ccc(C(=O)O)cc2)n1", "note": "[Compound A, 4-(4-(1-isopropyl-7-oxo-1,4,6,7-tetrahydrospiro[indazole-5,4′-piperidine]-1′-carbonyl)-6-methoxypyridin-2-yl)benzoic acid]", "values": [{"measurement": "total number (%) of subjects exceeding triglyceride threshold >400 mg/dl", "value": "11 (37.9)"}, {"measurement": "total number (%) of subjects exceeding triglyceride threshold >600 mg/dl", "value": "4 (13.8)"}, {"measurement": "total number (%) of subjects exceeding triglyceride threshold >800 mg/dl", "value": "3 (10.3)"}, {"measurement": "Serum triglycerides % Change from Placebo, LS Mean", "value": "marked triglyceride elevation"}]}
